Earlier results on 1 substance are cited in US20120135104A1, “Enhanced Absorption of Omega Fatty Acid Oils” (priority 2010, published 2012).

The conditions of this data set: single emulsifier.

Turning to “tocopheryl polyethylene glycol succinate”, the HLB value entry is on record as “about 13”.
